# Test results published in patent US20250326772A1, “MRGPRX2 ANTAGONISTS, PHARMACEUTICAL COMPOSITION INCLUDING MRGPRX2 ANTAGONIST, AND METHOD OF TREATING MRGPRX2-MEDIATED DISEASE OR DISORDER” (KYORIN PHARMACEUTICAL CO., LTD., priority 2024, published 2025).
# Amino acid sequences for entries named in this document (tags omitted).
# UniProt Q96LB1, whole entry: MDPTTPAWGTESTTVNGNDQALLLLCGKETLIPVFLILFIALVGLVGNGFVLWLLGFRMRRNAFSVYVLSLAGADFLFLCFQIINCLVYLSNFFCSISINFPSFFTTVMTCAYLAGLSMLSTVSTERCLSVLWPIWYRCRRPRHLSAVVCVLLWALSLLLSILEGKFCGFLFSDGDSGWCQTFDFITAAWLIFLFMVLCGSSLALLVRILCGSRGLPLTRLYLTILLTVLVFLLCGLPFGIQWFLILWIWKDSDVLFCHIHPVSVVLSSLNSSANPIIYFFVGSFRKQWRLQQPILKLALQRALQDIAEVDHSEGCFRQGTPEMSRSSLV
# Target: MRGPRX2 (Homo sapiens, UniProt Q96LB1)
# Experiment: MRGPRX2 reporter cell assay (NFAT-RE luciferase, Substance P stimulation)
# Assay type: cell-based
# Conditions: U2OS cells stably transfected with MRGPRX2 and NFAT-RE luciferase reporter; Substance P at EC80; class symbols
# Protocol: MRGPRX2 Reporter Cell Assays U2OS cells (ATCC, Manassas, VA) were stably transfected with MRGPRX2 expression clones (GeneCopoeia, Rockville, MD) and the pGL4.30 [luc2P/NFAT-RE/Hygro] reporter plasmid (Promega, Madison, WI). Clonal cells were maintained in Growth Media (McCoy's 5A, 10% FBS, 495 μg/ml hygromycin, 2 μg/ml puromycin, 100 units/ml penicillin, and 100 ug/ml streptomycin). The day before assay, cells were plated to white 384-well microplates at 3000 (MRGPRX2) cells/well in 10 ul Assay Media (McCoy's 5A, 2% charcoal dextran stripped FBS, 100 units/ml penicillin, and 100 ug/ml streptomycin) (Gibco, Thermo Fisher) and allowed to adhere overnight. The following day, serially diluted compound stocks were added directly to the cells (final DMSO concentration of 0.5%) and pre-incubated for 30 minutes at 37° C., 5% CO2. The final concentration of Substance P (Tocris, Minneapolis, MN, or PEPTIDE INSTITUTE, Osaka, Japan) corresponding to EC80 was added to stimulate the (MRGPRX2) cells. Cells were returned to the incubator for 6 hrs, after which 5 ul of ONE-GLO substrate (Promega) was added. Luminescence was read within 15 minutes (BioTek, Winooski, VT or infinite M1000Pro, Tecan Japan, Kanagawa, Japan). Percent inhibition for each test compound was calculated using the formula: […] where: • A=the luminescence count of the “test compound” well • B=the median luminescence count of the “Vehicle (0.5% DMSO)” wells • C═the median luminescence count of the “Vehicle (0.5% DMSO)+5 uM of substance P” wells The mean percent inhibition of each concentration of “test compound” was used to generate dose-response curves. IC50 values were calculated using a four-parameter logistic fit to the data using GraphPad Prism software. • +++: […]
row,Compound,IC50
1,FC(F)c1nn2c(c1-c1[nH]c3ncccc3c1-c1ccsc1Cl)OCCC2,< 10 nM
2,Cc1ccc(F)c(-c2c(-c3c(O)cccc3F)[nH]c3ncccc23)c1,< 10 nM
3,Cn1cc(-c2[nH]c3nccc(F)c3c2-c2ccccc2C#N)c(C(F)F)n1,< 10 nM
4,COc1ccc(F)cc1-c1[nH]c2ncccc2c1-c1ccccc1OC(F)(F)F,< 10 nM
5,COc1ccc(F)c(-c2c(-c3cc(F)ccc3O)[nH]c3ncccc23)c1,< 10 nM
